The experiment deals with Bovine serum albumin (BSA) (Bos taurus, UniProt P02769).

Turning to potassium hydroxide [KOH], the protein removed entry is on record as “less than 1 mg/cm^2”.

The record behind these values is patent US20030086820A1 (priority 2001, published 2003).
